The experiment has as its system 5′-d[CGA3T3C(CT)2GA3T3CG]-3′ hairpin duplex DNA. Briefly: Surface plasmon resonance, duplex DNA. The experiment is classed as binding. To be noted: 10 mM HEPES, 200 mM KCl, 3 mM EDTA, 0.01% P20, pH 7.4.
As to `CC(=O)Nc1ccc2c3cccc4c3c([n+](C)c2c1)-c1ccccc1N4C` [Compound 2, 2-Acetylamino-8,13-dimethyl-8H-quino[4,3,2-kl]-acridinium iodide], the “Surface plasmon resonance K, Duplex (D) DNA” value was found to be 400000 M⁻¹.

As for `CC[n+]1c2c3c(cc(C)cc3c3cc(F)ccc31)N(C)c1ccc(F)cc1-2` [Compound 8, 13-Ethyl-3,11-difluoro-6,8-dimethyl-8H-quino[4,3,2-kl]acridinium trifluoromethosulfate], the “Surface plasmon resonance K, Duplex (D) DNA” value was less than 50000 M⁻¹. The value for `CC(=O)Nc1ccc2c(c1)c1cccc3c1c([n+]2C)-c1ccccc1N3C` [Compound 3, 3-acetylamino-8,13-dimethyl-8H-quino[4,3,2-kl]-acridinium iodide] was 700000 M⁻¹; that for `Cc1cc2c3c([n+](C)c4ccc(F)cc4c3c1)-c1cc(F)ccc1N2C` [Compound 1, 3,11-Difluoro-6,8,13-trimethyl-8H-quino[4,3,2-kl]acridinium metho-sulfate] was 500000 M⁻¹.

The values above are taken from article PMC3849007 (Journal of Experimental & Clinical Cancer Research : CR, 2013).
